This test deals with T1, monomeric His-tagged human FcRn (human, UniProt P55899 24-297; P61769 21-119).
T1 construct: also called hFcRn
As to the kind of experiment: SPR (Biacore 3000), antibody amine-coupled, monomeric His-tagged hFcRn injected, pH 6.0. (In general: In SPR one partner is held on a chip, and binding of the other changes the refractive index at the surface.)

Chains of the proteins cited; added tags and fusions are not shown. Residues count along the entry.
UniProt P55899, 24-297 limits assumed, chain 1 of 2: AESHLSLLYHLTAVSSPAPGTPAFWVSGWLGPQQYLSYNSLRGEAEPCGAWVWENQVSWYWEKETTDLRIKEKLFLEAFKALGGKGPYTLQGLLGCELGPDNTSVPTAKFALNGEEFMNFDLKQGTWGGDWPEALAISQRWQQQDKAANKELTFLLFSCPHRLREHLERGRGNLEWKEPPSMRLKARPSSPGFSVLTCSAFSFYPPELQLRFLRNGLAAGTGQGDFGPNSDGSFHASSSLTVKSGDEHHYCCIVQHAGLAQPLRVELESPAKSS

B1: infliximab (antibody)
chain 1: not shown
chain 2: DILLTQSPAILSVSPGERVSFSCRASQFVGSSIHWYQQRTNGSPRLLIKYASESMSGIPSRFSGSGSGTDFTLSINTVESEDIADYYCQQSHSWPFTFGSGTNLEVKRTVAAPSVFIFPPSDEQLKSGTASVVCLLNNFYPREAKVQWKVDNALQSGNSQESVTEQDSKDSTYSLSSTLTLSKADYEKHKVYACEVTHQGLSSPVTKSFNRGEC
Molecule B1 yielded a Kd of 425 nM.

For orientation: Kd means the free concentration of one partner at which half of the binding sites on the other are occupied at equilibrium, for simple one-to-one binding. A low value points to tighter binding.

The values are drawn from patent US20240343793A1 (TILLOTTS PHARMA, published 2024).
